For this test, the target named is wtKIT (Homo sapiens, UniProt P10721). The test is described as follows: HTRF biochemical assay, wtKIT (phosphorylation of a peptide substrate). As to conditions: read-out: KIT Biochemical IC50 avg, Table 4.

By UniProt entry, the sequences of proteins in these tests, tags left out. Residues count along the entry.
UniProt P10721, 26-976 limits assumed: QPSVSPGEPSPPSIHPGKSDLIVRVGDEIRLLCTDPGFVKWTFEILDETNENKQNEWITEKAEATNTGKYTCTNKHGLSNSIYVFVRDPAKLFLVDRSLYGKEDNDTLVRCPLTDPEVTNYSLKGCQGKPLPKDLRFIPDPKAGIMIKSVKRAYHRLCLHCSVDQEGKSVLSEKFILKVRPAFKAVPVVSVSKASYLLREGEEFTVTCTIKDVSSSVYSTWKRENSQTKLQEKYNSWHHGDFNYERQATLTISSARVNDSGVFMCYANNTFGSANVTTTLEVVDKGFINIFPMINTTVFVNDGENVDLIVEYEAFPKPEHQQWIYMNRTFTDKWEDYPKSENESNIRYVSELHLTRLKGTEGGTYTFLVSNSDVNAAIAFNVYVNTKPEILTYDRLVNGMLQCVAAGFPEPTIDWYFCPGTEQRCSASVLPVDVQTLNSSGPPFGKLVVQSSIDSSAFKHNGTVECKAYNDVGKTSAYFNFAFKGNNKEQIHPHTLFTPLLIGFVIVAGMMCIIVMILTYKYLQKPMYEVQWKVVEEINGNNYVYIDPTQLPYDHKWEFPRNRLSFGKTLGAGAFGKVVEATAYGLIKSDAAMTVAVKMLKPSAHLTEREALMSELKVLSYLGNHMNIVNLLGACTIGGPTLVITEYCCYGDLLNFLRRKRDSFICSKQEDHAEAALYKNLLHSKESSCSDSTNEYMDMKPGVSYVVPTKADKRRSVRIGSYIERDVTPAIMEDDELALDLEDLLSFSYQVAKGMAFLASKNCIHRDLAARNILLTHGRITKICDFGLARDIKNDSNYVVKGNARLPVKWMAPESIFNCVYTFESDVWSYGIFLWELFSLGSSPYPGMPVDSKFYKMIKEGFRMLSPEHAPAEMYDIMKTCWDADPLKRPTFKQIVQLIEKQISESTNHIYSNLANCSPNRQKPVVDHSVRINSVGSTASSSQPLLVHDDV

For 77 compounds, IC50 results are on record in patent US20240254119A1 (THIRD HARMONIC BIO, INC., priority 2022, published 2024).

As usually defined, the IC50 is the concentration at which inhibition is half-maximal. Consider `Cc1ccc(-c2noc([C@@H]3CC(F)(F)CN3)n2)cc1NC(=O)c1cnn2cc(F)ccc12`, for which the IC50 lay within 50 to 500 nM.

For `CC[C@@H](O)Cc1nc(-c2ccc(C)c(NC(=O)c3cnc4cc(-c5cn(C)cn5)ccn34)c2)no1`, the half-inhibitory concentration (IC50) was under 50 nM.

On to `Cc1ccc(-c2noc([C@H]3C[C@@H]3F)n2)cc1NC(=O)c1cnc2ccc(C(=O)N(C)C)cn12`, for which the IC50 is 50 to 500 nM.

Turning to `Cc1ccc(-c2noc(N3CCC(O)C3)n2)cc1NC(=O)c1cnc2cc(-c3ccn(C)n3)ccn12` (centres unmarked), the half-maximal inhibitory concentration (IC50) is under 50 nM.

For `Cc1ccc(-c2noc(C[C@H](O)C(F)F)n2)cc1NC(=O)c1cnc2cc(COCCN(C)C)ccn12`, the IC50 is 50 to 500 nM.

As for `Cc1ccc(-c2noc(C[C@H]3CCCO3)n2)cc1NC(=O)c1cnc2cc(COCC3(O)CC3)ccn12`, the IC50 was under 50 nM.

For the compound `Cc1ccc(-c2noc(C[C@@H]3CCCO3)n2)cc1NC(=O)c1cnc2cc(-c3cn(C)cn3)ccn12`, the half-inhibitory concentration (IC50) was under 50 nM.

As for `CC[C@@H](O)Cc1nc(-c2ccc(C)c(NC(=O)c3cnc4cc(-c5ccn(C)n5)ccn34)c2)no1`, the concentration for half-maximal inhibition (IC50) was under 50 nM.

Take `Cc1ccc(-c2noc([C@H]3C[C@@H]3F)n2)cc1NC(=O)c1cnc2cc(COCCO)c(F)cn12`: the IC50 was under 50 nM.

With `Cc1ccc(-c2noc(N3CC[C@@H](O)C3)n2)cc1NC(=O)c1cnc2cc(Cl)ccn12`, the 50% inhibitory concentration (IC50) lay within 50 to 500 nM.

Consider `Cc1ccc(-c2noc(C[C@@H](C)O)n2)cc1NC(=O)c1cnc2cc(C(C)(F)F)ccn12`, for which the IC50 fell in the range of 50 to 500 nM.

As for `Cc1ccc(-c2noc(C3CC3F)n2)cc1NC(=O)c1cnc2n1CCC(COCCO)C2` (centres unmarked), the half-inhibitory concentration (IC50) is 50 to 500 nM.

As to `Cc1ccc(-c2noc(C3CCCC3O)n2)cc1NC(=O)c1cnc2ccccn12` (centres unmarked), the 50% inhibitory concentration (IC50) is 50 to 500 nM.

For the compound `Cc1ccc(-c2noc(CC(O)C(F)F)n2)cc1NC(=O)c1cnc2cc(COCC(C)(C)O)ccn12` (single isomer, unassigned), the IC50 is under 50 nM.

Take `Cc1ccc(-c2noc([C@H]3C[C@@H]3F)n2)cc1NC(=O)c1cnc2cc3c(cn12)CC(C)(C)O3`: the half-inhibitory concentration (IC50) fell in the range of 50 to 500 nM.

Regarding `COCc1ccn2c(C(=O)Nc3cc(-c4noc(-c5ccccc5)n4)ccc3C)cnc2c1`, the concentration for half-maximal inhibition (IC50) was under 50 nM.

In the case of `Cc1ccc(-c2noc(C3CCN3)n2)cc1NC(=O)c1cnn2cc(-c3ccn(C)n3)ccc12` (centres unmarked), the IC50 is under 50 nM.

On to `Cc1ccc(-c2noc(N3CCC(O)C3)n2)cc1NC(=O)c1cnc2cc(Cl)ccn12` (centres unmarked), for which the IC50 was 50 to 500 nM.

Take `Cc1ccc(-c2noc(C[C@H](O)C(F)F)n2)cc1NC(=O)c1cnc2cc(COCCN)ccn12`: the IC50 is under 50 nM.

On to `CC[C@@H](O)Cc1nc(-c2ccc(C)c(NC(=O)c3cnc4cc(-c5cscn5)ccn34)c2)no1`, for which the IC50 is under 50 nM.

`Cc1ccc(-c2noc(C[C@H]3CCCO3)n2)cc1NC(=O)c1cnc2cc(-c3cn(C)cn3)ccn12`: the 50% inhibitory concentration (IC50) was under 50 nM.

With `Cc1ccn2c(C(=O)Nc3cc(-c4noc(CC(O)(O)C(F)(F)F)n4)ccc3C)cnc2c1`, the IC50 lay in the range of 50 to 500 nM.

As to `Cc1ccc(-c2noc(C[C@@H]3CCCO3)n2)cc1NC(=O)c1cnc2cc(-c3cscn3)ccn12`, the IC50 is under 50 nM.

With `Cc1ccc(-c2noc(-c3ccccn3)n2)cc1NC(=O)c1cnc2cc(COCCO)ccn12`, the IC50 is under 50 nM.

As for `Cc1ccc(-c2noc(CC(O)C(F)F)n2)cc1NC(=O)c1cnc2cc(COCCO)ccn12` (single isomer, unassigned) [Compound I-511], the 50% inhibitory concentration (IC50) fell in the range of 50 to 500 nM.

On to `Cc1ccc(-c2noc(C3CCN3)n2)cc1NC(=O)c1cnc2cc(-c3cscn3)ccn12` (centres unmarked), for which the IC50 was under 50 nM.

`Cc1nc(-c2ccc(C)c(NC(=O)c3cnc4cc(C(C)(F)F)ccn34)c2)no1`: the concentration for half-maximal inhibition (IC50) is 50 to 500 nM.

Regarding `Cc1ccc(-c2noc(C3CC(C)N3)n2)cc1NC(=O)c1cnc2cc(F)ccn12` (single isomer, unassigned), the half-maximal inhibitory concentration (IC50) lay within 50 to 500 nM.

As for `CNC(C)(C)COCc1ccn2c(C(=O)Nc3cc(-c4noc(C[C@H](O)C(F)F)n4)ccc3C)cnc2c1`, the IC50 is 500 to 5000 nM.

Take `Cc1ccc(-c2noc([C@H]3C[C@@H]3F)n2)cc1NC(=O)c1cnn2cc(CCOCC(C)(C)O)ccc12`: the half-maximal inhibitory concentration (IC50) fell in the range of 500 to 5000 nM.

With `Cc1ccc(-c2noc([C@H]3C[C@@H]3F)n2)cc1NC(=O)c1cnc2ccc(C(=O)N3CCCC3)cn12`, the IC50 was 50 to 500 nM.

As for `Cc1ccn2c(C(=O)Nc3cc(-c4noc(C)n4)ccc3C)cnc2c1`, the IC50 lay within 50 to 500 nM.

For `Cc1ccc(-c2noc([C@H](C)O)n2)cc1NC(=O)c1cnn2cc(-c3cscn3)ccc12`, the IC50 is under 50 nM.

For the compound `Cc1ccc(-c2noc([C@H]3C[C@@H]3F)n2)cc1NC(=O)c1cnc2c(F)c(OC(C)C)ccn12`, the IC50 fell in the range of 50 to 500 nM.

`Cc1ccc(-c2noc(N3CC(F)(F)C3)n2)cc1NC(=O)c1cnc2cc(Cl)c(F)cn12`: the concentration for half-maximal inhibition (IC50) lay in the range of 50 to 500 nM.

As for `CC[C@H](O)Cc1nc(-c2ccc(C)c(NC(=O)c3cnc4cc(-c5ccn(C)n5)ccn34)c2)no1`, the IC50 was under 50 nM.

In the case of `Cc1ccn2c(C(=O)Nc3cc(-c4noc(CC(O)(O)C(F)F)n4)ccc3C)cnc2c1`, the IC50 was 500 to 5000 nM.

`CC[C@H](O)Cc1nc(-c2ccc(C)c(NC(=O)c3cnc4cc(-c5cscn5)ccn34)c2)no1`: the IC50 was under 50 nM.

Regarding `CCc1cn2c(C(=O)Nc3cc(-c4noc(N5CC(F)(F)C5)n4)ccc3C)cnc2cc1Cl`, the IC50 lay in the range of 50 to 500 nM.

For `Cc1ccn2c(C(=O)Nc3cc(-c4noc(C(O)(O)C(F)(F)F)n4)ccc3C)cnc2c1`, the IC50 fell in the range of 50 to 500 nM.

Regarding `Cc1ccc(-c2noc(C[C@@H](C)O)n2)cc1NC(=O)c1cnc2cc(OCCCN3CCCC3)ccn12`, the half-inhibitory concentration (IC50) was under 50 nM.

Take `COCc1ccn2c(C(=O)Nc3cc(-c4noc(C[C@H](C)O)n4)ccc3C)cnc2c1`: the half-inhibitory concentration (IC50) is under 50 nM.

As for `[2H]C([2H])c1nc(-c2ccc(C)c(NC(=O)c3cnc4ccccn34)c2)no1`, the IC50 is 50 to 500 nM.

For `Cc1ccc(-c2noc(C[C@H](C)O)n2)cc1NC(=O)c1cnc2cc(C(C)(F)F)ccn12`, the IC50 was in the range of 50 to 500 nM.

`Cc1ccc(-c2noc([C@H]3C[C@@H]3F)n2)cc1NC(=O)c1cnc2cc(COCC(O)C(F)(F)F)ccn12` (single isomer, unassigned): the half-maximal inhibitory concentration (IC50) fell in the range of 50 to 500 nM.

Consider `Cc1ccc(-c2noc([C@H]3C[C@@H]3F)n2)cc1NC(=O)c1cnc2n1CC(C)(C)CC2`, for which the IC50 lay in the range of 50 to 500 nM.

As for `Cc1nc(-c2ccc(C)c(NC(=O)c3cnn4cc(COCC5(O)CC5)ccc34)c2)no1`, the half-inhibitory concentration (IC50) lay within 50 to 500 nM.

With `CCC(O)Cc1nc(-c2ccc(C)c(NC(=O)c3cnc4cc(OCCCN5CCCC5)ccn34)c2)no1` (single isomer, unassigned), the half-inhibitory concentration (IC50) is under 50 nM.

In the case of `Cc1ccc(-c2noc([C@H]3C[C@@H]3F)n2)cc1NC(=O)c1cnn2c(F)cccc12`, the IC50 was in the range of 50 to 500 nM.

As for `Cc1ccc(-c2noc([C@@H]3CC(F)(F)CN3)n2)cc1NC(=O)c1cnn2cc(Cl)ccc12`, the half-maximal inhibitory concentration (IC50) lay in the range of 50 to 500 nM.

For `Cc1ccc(-c2noc(C3CC(O)C3)n2)cc1NC(=O)c1cnc2cc(-c3ccn(C)n3)ccn12` (single isomer, unassigned), the IC50 was under 50 nM.

In the case of `Cc1ccc(-c2noc(C[C@H](O)C(F)F)n2)cc1NC(=O)c1cnc2cc(COC(C)(C)CO)ccn12`, the 50% inhibitory concentration (IC50) was in the range of 50 to 500 nM.

As to `Cc1ccc(-c2noc(C3CC3F)n2)cc1NC(=O)c1cnc2n1CCC(C)C2` (centres unmarked), the IC50 lay within 50 to 500 nM.

With `Cc1ccc(-c2noc([C@H]3C[C@@H](O)C3)n2)cc1NC(=O)c1cnc2cc(Cl)ccn12` (relative stereo), the IC50 was in the range of 50 to 500 nM.

On to `Cc1ccc(-c2noc([C@H]3C[C@@H]3F)n2)cc1NC(=O)c1cnc2cc3c(cn12)OC(C)(C)C3`, for which the concentration for half-maximal inhibition (IC50) was under 50 nM.

Consider `Cc1ccc(-c2noc(CC3CCCO3)n2)cc1NC(=O)c1cnc2cc(-c3cn(C)cn3)ccn12` (centres unmarked), for which the 50% inhibitory concentration (IC50) was under 50 nM.

In the case of `Cc1ccc(-c2noc(C3CCN3)n2)cc1NC(=O)c1cnc2cc(C(C)(F)F)ccn12` (centres unmarked), the 50% inhibitory concentration (IC50) was under 50 nM.

As for `Cc1ccc(-c2noc(N3CC[C@@H](O)C3)n2)cc1NC(=O)c1cnc2cc(-c3ccn(C)n3)ccn12`, the IC50 was under 50 nM.

Consider `COCCOCC1CCn2c(C(=O)Nc3cc(-c4noc(C5CC5F)n4)ccc3C)cnc2C1` (centres unmarked), for which the IC50 lay in the range of 50 to 500 nM.

Regarding `Cc1ccc(-c2noc([C@H]3C[C@H](O)C3)n2)cc1NC(=O)c1cnc2cc(Cl)ccn12` (relative stereo), the IC50 lay within 50 to 500 nM.

For the compound `Cc1ccc(-c2noc(CC3(O)CC3)n2)cc1NC(=O)c1cnc2cc(Cl)ccn12`, the IC50 was under 50 nM.

Take `Cc1ccc(-c2noc(N3CC[C@H](O)C3)n2)cc1NC(=O)c1cnc2cc(-c3ccn(C)n3)ccn12`: the IC50 is under 50 nM.

Consider `Cc1ccc(-c2noc([C@@H]3CC4(CC4)CN3)n2)cc1NC(=O)c1cnc2cc(C(C)(F)F)ccn12`, for which the 50% inhibitory concentration (IC50) is under 50 nM.

In the case of `Cc1ccc(-c2noc(CC(C)(O)C(F)(F)F)n2)cc1NC(=O)c1cnc2ccccn12` (centres unmarked), the half-maximal inhibitory concentration (IC50) fell in the range of 50 to 500 nM.

Consider `Cc1ccc(-c2noc(N3CC[C@H](O)C3)n2)cc1NC(=O)c1cnc2cc(Cl)ccn12`, for which the concentration for half-maximal inhibition (IC50) was 50 to 500 nM.

Regarding `Cc1nc(-c2ccc(C)c(NC(=O)c3cnc4cc(COCC(C)(C)O)ccn34)c2)no1`, the IC50 lay in the range of 50 to 500 nM.

As for `Cc1ccc(-c2noc(CC[C@@](C)(O)C(F)F)n2)cc1NC(=O)c1cnc2ccccn12`, the half-maximal inhibitory concentration (IC50) was under 50 nM.

Consider `Cc1ccc(-c2noc([C@@H](O)CO)n2)cc1NC(=O)c1cnc2cc(Cl)ccn12`, for which the IC50 fell in the range of 500 to 5000 nM.

In the case of `Cc1ccn2c(C(=O)Nc3cc(-c4noc(C(O)C(F)(F)F)n4)ccc3C)cnc2c1` (centres unmarked), the IC50 was 50 to 500 nM.

Take `Cc1ccc(-c2noc([C@H]3C[C@@H]3F)n2)cc1NC(=O)c1cnn2cc(COCCO)ccc12`: the IC50 is under 50 nM.

On to `Cc1ccc(-c2noc([C@@H]3CCCN3)n2)cc1NC(=O)c1cnn2cc(-c3ccn(C)n3)ccc12`, for which the IC50 was under 50 nM.

Consider `Cc1ccc(-c2noc(C[C@H]3CCCO3)n2)cc1NC(=O)c1cnc2cc(COCC(C)(C)O)ccn12`, for which the half-inhibitory concentration (IC50) was under 50 nM.

In the case of `CC[C@@H](O)Cc1nc(-c2ccc(C)c(NC(=O)c3cnc4cc(COC)ccn34)c2)no1`, the IC50 was under 50 nM.

In the case of `Cc1ccn2c(C(=O)Nc3cc(-c4noc(CC(O)C(F)F)n4)ccc3C)cnc2c1` (centres unmarked), the IC50 is 50 to 500 nM.

As for `Cc1ccc(-c2noc([C@H]3C[C@@H]3F)n2)cc1NC(=O)c1cnc2cc(CCO)ccn12`, the IC50 was in the range of 50 to 500 nM.

For `Cc1ccc(-c2noc(CCC(C)(O)C(F)(F)F)n2)cc1NC(=O)c1cnc2ccccn12` (centres unmarked), the half-inhibitory concentration (IC50) fell in the range of 50 to 500 nM.

Turning to `Cc1ccc(-c2noc(CC3(O)CC3)n2)cc1NC(=O)c1cnc2cc(F)ccn12`, the IC50 fell in the range of 50 to 500 nM.
